Molecular target: Rad52 (S. cerevisiae) (S. cerevisiae, UniProt P06778)
Test: AUC

B1: Replication protein A (Saccharomyces cerevisiae RPA) (complex)
chain 1: MSSVQLSRGDFHSIFTNKQRYDNPTGGVYQVYNTRKSDGANSNRKNLIMISDGIYHMKALLRNQAASKFQSMELQRGDIIRVIIAEPAIVRERKKYVLLVDDFELVQSRADMVNQTSTFLDNYFSEHPNETLKDEDITDSGNVANQTNASNAGVPDMLHSNSNLNANERKFANENPNSQKTRPIFAIEQLSPYQNVWTIKARVSYKGEIKTWHNQRGDGKLFNVNFLDTSGEIRATAFNDFATKFNEILQEGKVYYVSKAKLQPAKPQFTNLTHPYELNLDRDTVIEECFDESNVPKTHFNFIKLDAIQNQEVNSNVDVLGIIQTINPHFELTSRAGKKFDRRDITIVDDSGFSISVGLWNQQALDFNLPEGSVAAIKGVRVTDFGGKSLSMGFSSTLIPNPEIPEAYALKGWYDSKGRNANFITLKQEPGMGGQSAASLTKFIAQRITIARAQAENLGRSEKGDFFSVKAAISFLKVDNFAYPACSNENCNKKVLEQPDGTWRCEKCDTNNARPNWRYILTISIIDETNQLWLTLFDDQAKQLLGVDANTLMSLKEEDPNEFTKITQSIQMNEYDFRIRAREDTYNDQSRIRYTVANLHSLNYRAEADYLADELSKALLA
chain 2: MATYQPYNEYSSVTGGGFENSESRPGSGESETNTRVNTLTPVTIKQILESKQDIQDGPFVSHNQELHHVCFVGVVRNITDHTANIFLTIEDGTGQIEVRKWSEDANDLAAGNDDSSGKGYGSQVAQQFEIGGYVKVFGALKEFGGKKNIQYAVIKPIDSFNEVLTHHLEVIKCHSIASGMMKQPLESASNNNGQSLFVKDDNDTSSGSSPLQRILEFCKKQCEGKDANSFAVPIPLISQSLNLDETTVRNCCTTLTDQGFIYPTFDDNNFFAL
chain 3: MASETPRVDPTEISNVNAPVFRIIAQIKSQPTESQLILQSPTISSKNGSEVEMITLNNIRVSMNKTFEIDSWYEFVCRNNDDGELGFLILDAVLCKFKENEDLSLNGVVALQRLCKKYPEIY
- binding result: binds
